Experimental data reported in PubChem BioAssay AID1974 (The Scripps Research Institute Molecular Screening Center, 2009).
The entries are a selection whose mix differs from that of the whole data set. Activity calls are given as the source filed them.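 How the source made its calls: active means inhibition above the campaign mean inhibition plus 3 SD (cut at about 35% in these data); inactive means the rest.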

Sequences of proteins named here, by UniProt entry; tags and fusion partners are left off.
UniProt P78417, whole entry: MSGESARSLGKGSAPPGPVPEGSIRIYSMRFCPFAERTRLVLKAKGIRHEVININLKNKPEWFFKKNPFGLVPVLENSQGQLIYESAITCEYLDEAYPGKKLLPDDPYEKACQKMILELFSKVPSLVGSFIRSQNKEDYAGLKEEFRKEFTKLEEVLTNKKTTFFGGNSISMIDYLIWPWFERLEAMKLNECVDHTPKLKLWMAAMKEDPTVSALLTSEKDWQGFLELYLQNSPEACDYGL

target: Glutathione S-transferase omega-1 (Homo sapiens) (UniProt P78417); assay: human GSTO1 enzyme inhibition – biochemical, fluorescence polarization, counter-screen for RBBP9 inhibitor project, primary screen (AID 1974); details: recombinant GSTO1, activity-based probe fluorescence polarization; at 5.96 µM; stronger effect = higher value;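 further: 0% = GSTO1-1 with DMSO and 100% = wells lacking GSTO1-1 enzyme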

SMILES | inhibition
N#CC1(Nc2ccccc2)CCN(CCc2ccccc2)CC1 | inactive: 11.5%
CCN1CCC(Nc2ccc(Cl)cc2)CC1 | inactive: 0.02%
O=C(NCC1(N2CCCCC2)CCCCC1)c1cccc([N+](=O)[O-])c1 | inactive: 2.06%
O=C(NCC1(N2CCCCC2)CCCCC1)c1ccc(OC(F)F)cc1 | inactive: -3.95%
COc1cc(C(=O)NCC2(N3CCCCC3)CCCCC2)ccc1OC(F)F | inactive: -0.09%
O=C(NCC1(N2CCOCC2)CCCCC1)c1cc(=O)[nH]c2ccccc12 | inactive: -4.3%
CN1CCN(CCOC(=O)C(O)(c2ccccc2)c2ccccc2)CC1 | inactive: 0.18%
COc1ccc(NC2CCN(C(=O)OC(C)(C)C)CC2)cc1 | inactive: 9.07%
O=C(NCC1(N2CCCCC2)CCCCC1)c1cccc(C(F)(F)F)c1 | inactive: 0.3%
COc1cc(OC)c(C(=O)NCC2(N(C)C)CCCCC2)cc1OC | inactive: 1.63%
CC(C)c1ccc(NC2CCN(C(=O)OC(C)(C)C)CC2)cc1 | inactive: 0.15%
CN(C)c1cccc(C(=O)NCC2(N3CCCCC3)CCCCC2)c1 | inactive: 13%
COc1ccc(CN(CCCl)CCCl)cc1Cl | inactive: -5.83%
CN1CCC(Nc2cccc(F)c2)CC1 | inactive: -1.99%
CSc1ccccc1C(=O)NCC1(N2CCCCC2)CCCCC1 | inactive: 2.05%
COc1ccc(C(=O)NCC2(N3CCCCC3)CCCCC2)c(OC)c1OC | inactive: -1.1%
CC(C)(C)OC(=O)N1CCC(N(C(=O)c2ccccc2)c2ccc(F)cc2)CC1 | inactive: -2.51%
COc1ccc(C(=O)NCC2(N3CCCCC3)CCCCC2)cc1 | inactive: 10.3%
O=C(NCC1(N2CCCCC2)CCCCC1)c1cccs1 | inactive: 6.15%

SMILES | inhibition
O=C(NCC1(N2CCCCC2)CCCCC1)c1ccc(=O)[nH]c1 | inactive: 4.09%
N#CC1(Nc2ccccc2)CCN(Cc2ccccc2)CC1 | inactive: 10.5%
O=C(OC1CN2CCC1CC2)C1c2ccccc2Oc2ccccc21 (stereo unspecified) | inactive: -6.07%
CCOC(=O)N1CCC(Nc2ccc(OC)cc2)CC1 | inactive: -1.38%
Cc1cc(C)cc(N(C(=O)c2ccccc2)C2CCN(C(=O)OC(C)(C)C)CC2)c1 | inactive: 5.98%
O=C(NCC1(N2CCCCC2)CCCCC1)c1ccc(Cl)nc1 | inactive: 7.96%
O=C(NCC1(N2CCOCC2)CCCCC1)c1cc2ccccc2o1 | inactive: 1.65%
COc1ccc(NC2CCN(CCc3ccccc3)CC2)c(OC)c1 | inactive: 0.2%
O=C(NCC1(N2CCCCC2)CCCCC1)c1ccc(F)cc1 | inactive: -3.36%
CCOc1ccc(C)cc1CN(CCCl)CCCl | inactive: -0.98%
Cc1ccc(OCC(C)C)c(CN(CCCl)CCCl)c1 | inactive: 4.51%
CCOC(=O)N1CCC(Nc2cccc(C)c2)CC1 | inactive: 4.06%
Fc1ccccc1NC1CCN(Cc2ccccc2)CC1 | inactive: -8.64%
Cc1ccc(C(=O)NCC2(N3CCCCC3)CCCCC2)o1 | inactive: 4.79%
COc1cc(OC)cc(C(=O)NCC2(N3CCCCC3)CCCCC2)c1 | inactive: 1.33%
CN(C)c1ccc(C(=O)NCC2(N3CCCCC3)CCCCC2)cc1 | inactive: 2.82%
CCN1CCC(Nc2cccc(F)c2)CC1 | inactive: 2.57%
O=C(O)C1(Nc2ccccc2)CCN(Cc2ccccc2)CC1 | inactive: -1.56%
CC(C)(C)OC(=O)N1CCC(Nc2ccccc2)CC1 | inactive: -7.93%

SMILES | inhibition
CCCOc1ccc(C(=O)NCC2(N(C)C)CCCCC2)cc1 | inactive: -0.37%
CN1CCC(Nc2ccc(F)c(Cl)c2)CC1 | inactive: 0.14%
CCOc1ncccc1C(=O)NCC1(N2CCOCC2)CCCCC1 | inactive: 4.72%
CN1CCC(Nc2ccc(Cl)cc2)CC1 | inactive: 2.44%
CCCOc1ccc(C)cc1CN(CCCl)CCCl | inactive: -0.64%
COc1cc(OC)cc(C(=O)NCC2(N3CCOCC3)CCCCC2)c1 | inactive: 5.04%
COc1cccc(C(=O)N(c2cc(C)cc(C)c2)C2CCN(C(=O)OC(C)(C)C)CC2)c1 | inactive: 1.71%
CCC(CO)(C(=O)OC1CN2CCC1CC2)c1ccccc1 (stereo unspecified) | inactive: 0.38%
COc1ccc(C(=O)NCC2(N3CCOCC3)CCCCC2)cc1OC | inactive: 1.44%
CCc1cc(C(=O)NCC2(N3CCCCC3)CCCCC2)sc1C | inactive: -10.2%
O=C(OC1CN2CCC1CC2)C1c2ccccc2C=Cc2ccccc21 (stereo unspecified) | inactive: 5.97%
CCOC(=O)N1CCC(Nc2ccc(C)cc2)CC1 | inactive: 7.15%
N/C(=N\O)c1c(N)no[n+]1[O-] | inactive: 4.2%
N#Cc1ccc(C(=O)NCC2(N3CCCCC3)CCCCC2)cc1 | inactive: -2.63%
CC(C)(C)OC(=O)N1CCC(N(C(=O)c2ccccc2)c2ccc(Cl)cc2)CC1 | inactive: 5.52%
CN(C)C1(CNC(=O)c2cccc(C#N)c2)CCCCC1 | inactive: 1.02%
CCCN1CCC(Nc2cc(OC)cc(OC)c2)CC1 | inactive: 4.28%
c1ccc(CN2CCC(Nc3ccccc3)CC2)cc1 | inactive: 5.41%
